# Measured values from US6770748B2, “Bicyclonucleoside and oligonucleotide analogue” (priority 1997, dated 2004).
# Sequences of proteins named here, by UniProt entry; tags and fusion partners are left off. Residues count along the entry.
# UniProt J3SEZ3, 24-851 limits assumed: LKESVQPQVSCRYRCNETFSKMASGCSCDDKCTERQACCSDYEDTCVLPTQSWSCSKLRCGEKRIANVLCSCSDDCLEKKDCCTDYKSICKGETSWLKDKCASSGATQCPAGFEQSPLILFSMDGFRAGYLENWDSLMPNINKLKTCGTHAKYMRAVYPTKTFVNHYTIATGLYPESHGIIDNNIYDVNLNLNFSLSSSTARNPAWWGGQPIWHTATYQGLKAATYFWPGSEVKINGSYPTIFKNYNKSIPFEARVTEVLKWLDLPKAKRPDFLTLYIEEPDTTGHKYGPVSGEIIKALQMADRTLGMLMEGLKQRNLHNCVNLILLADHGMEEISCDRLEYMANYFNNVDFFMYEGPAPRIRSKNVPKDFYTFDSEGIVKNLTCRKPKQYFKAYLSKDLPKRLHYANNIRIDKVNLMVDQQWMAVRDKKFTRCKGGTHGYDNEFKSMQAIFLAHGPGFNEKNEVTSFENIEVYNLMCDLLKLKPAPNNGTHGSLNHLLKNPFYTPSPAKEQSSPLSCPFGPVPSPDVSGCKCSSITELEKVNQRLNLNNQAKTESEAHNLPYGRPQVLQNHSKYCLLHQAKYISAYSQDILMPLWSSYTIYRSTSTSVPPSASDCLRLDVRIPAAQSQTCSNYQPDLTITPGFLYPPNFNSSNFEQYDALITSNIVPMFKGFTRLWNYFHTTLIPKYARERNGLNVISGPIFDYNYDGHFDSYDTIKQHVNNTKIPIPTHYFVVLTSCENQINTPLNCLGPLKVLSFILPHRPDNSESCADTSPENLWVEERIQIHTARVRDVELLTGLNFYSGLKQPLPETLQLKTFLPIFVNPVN
# Molecular target: snake venom phosphodiesterase (Crotalus adamanteus, UniProt J3SEZ3)
substance,measurement,setting,value
5′-GTTTTTTTTTXXC-3′ [Compound X2],time until ultraviolet absorption reached a plateau after initiation of the enzyme reaction,,about 90 minutes
same,t½ (half-life),pH 8.6,14.2 min
